A short description of data set [1]: Mutagenecity against Salmonella typhimurium TA1535 assessed as number of colonies in presence of Sprague-Dawley rat S9 with metabolic activation measured after 48 hrs by Ames test ( Rvb = 5 +/- 3.6). Conditions: salmonella enterica subsp. enterica serovar typhimurium, s9, 48 h. A general note: In the Ames test, an excess of revertant colonies over the control signals mutagenicity.

A short description of data set [2]: Mutagenecity against Salmonella typhimurium TA1535 assessed as number of colonies in absence of Sprague-Dawley rat S9 with metabolic activation measured after 48 hrs by Ames test ( Rvb = 13.3 +/- 2.5). Conditions: salmonella enterica subsp. enterica serovar typhimurium, s9, 48 h.

For the compound `[N-]=[N+]=N.[Na+]`, the figures for the Activity in data set [1] and in data set [2] were 96 and 235, respectively.
